Data set [1] can be described thus: Hydrolysis kinetics of POZ-lipid conjugates in rat plasma. In kind it is in vitro ADME. The settings on record: 37° C.; for Half-Life 50% Rat Plasma: 50% rat plasma diluted in PBS. Here is the method:
(§1) These solutions were spiked into the PBS or rat or human plasma media and allowed to incubate at 37° C. Samples were removed from hydrolysis media at different time intervals and quenched by addition of chilled 0.2% formic acid in methanol. […] The POZ-lipid conjugates were detected by UV absorption at 210 nm, and its breakdown and degradation metabolites were detected followed by mass spectrometry.

Sequences of proteins named here, by UniProt entry; tags and fusion partners are left off.
UniProt O00519, whole entry: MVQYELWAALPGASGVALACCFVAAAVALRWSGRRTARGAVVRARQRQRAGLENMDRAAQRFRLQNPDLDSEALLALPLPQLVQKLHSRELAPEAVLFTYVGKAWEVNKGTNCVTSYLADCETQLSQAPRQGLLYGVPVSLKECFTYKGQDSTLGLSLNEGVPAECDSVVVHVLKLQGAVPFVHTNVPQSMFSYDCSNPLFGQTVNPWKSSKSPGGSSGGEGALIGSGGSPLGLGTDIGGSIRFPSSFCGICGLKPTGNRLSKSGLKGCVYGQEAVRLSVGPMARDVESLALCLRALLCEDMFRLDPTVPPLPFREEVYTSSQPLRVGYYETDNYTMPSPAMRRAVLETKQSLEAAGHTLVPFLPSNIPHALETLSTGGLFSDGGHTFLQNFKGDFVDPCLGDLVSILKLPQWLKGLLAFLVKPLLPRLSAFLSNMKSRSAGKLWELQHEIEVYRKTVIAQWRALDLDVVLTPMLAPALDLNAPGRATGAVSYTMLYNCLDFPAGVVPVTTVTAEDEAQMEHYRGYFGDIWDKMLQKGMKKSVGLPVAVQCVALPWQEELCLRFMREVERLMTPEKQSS

The nature of data set [2]: Hydrolysis kinetics of POZ-lipid conjugates in human plasma. The format is in vitro ADME. To be noted: for rate of hydrolysis in plasma, ester versus ether linkages: compared with ether linkages (Compounds 17a, 17b and 17c). The method, then:
as §1

Data set [3] concerns the target fatty acid amide hydrolase 1, active human recombinant (FAAH1) (Homo sapiens, UniProt O00519). To be noted: UV 210 nm.
Setting [4] is: 50% human plasma, 37° C., extrapolated from a plot using Microsoft Excel.
[5] abbreviates: 50% human plasma diluted in PBS, 37° C.

Like-named read-outs stand apart in the source and are kept apart here. Marks after values point to notes of the source that are not given here. Where only a bound is given, the exact number is not on record here.

As to “PEOZ-dimyristoyl Glycerol Ether [Compound 17b]”, in data set [1], the “Half-Life 50% Rat Plasma” value was below 1 h. The “Half-Life 50% Human Plasma” value in data set [2] (setting [4]) is on record as 166** hour.

Consider PMOZ 2K DMG Ester [Compound 20a], for which, in data set [1], the “Half-Life 50% Rat Plasma” value is 1 h. For the same substance, the “Half-Life 50% Human Plasma” value in data set [2] (setting [5]) was 7 h. Further, in data set [2], the “rate of hydrolysis in plasma, ester versus ether linkages” value is listed as “faster rate”.

For “PMOZ 5k Dimyristoyl glycerol ether [Compound 17a]”, in data set [1], the “Half-Life 50% Rat Plasma” value was below 1 h. Also, the “Half-Life 50% Human Plasma” value in data set [2] (setting [4]) was 258** hour.

PMOZ-dimyristylamide [Compound 15a]: the “Half-Life Rat Plasma” value in data set [1] (experiment conducted with 100% Plasma (rat)) is “NRx* (No apparent reaction (hydrolysis) after 120 h)”. The “Peak Area of POZ-DMA Analyte” value in data set [3] (With Amidase, overnight at 37° C.) is reported as 771; in data set [3] (time zero), 1139. Also, the “Half-Life Human Plasma” value in data set [2] (experiment conducted with 100% Plasma (human), 37° C.) is given as “NRx* (No apparent reaction (hydrolysis) after 120 h)”.

Consider PEOZ 2K DMG Ester [Compound 20b], for which, in data set [1], the “Half-Life 50% Rat Plasma” value was below 1 h. For the same substance, in data set [2] (setting [5]), the “Half-Life 50% Human Plasma” value is 10 h. In addition, in data set [2], the “rate of hydrolysis in plasma, ester versus ether linkages” value is “faster rate”.

Regarding “PEOZ 2K Dimyristoyl glycerol ether [Compound 17c]”, the “Half-Life 50% Rat Plasma” value in data set [1] was found to be 1 h. For the same substance, the “Half-Life 50% Human Plasma” value in data set [2] (setting [4]) is 180** hour.

The record behind these values is US12233132B2, “Polyoxazoline-lipid conjugates and lipid nanoparticles and pharmaceutical compositions including same” (Serina Therapeutics, Inc., priority 2021, dated 2025).
